Measurements as given in ChEMBL document CHEMBL1764973 (J Med Chem, 2011).
pKi: −log10 of the molar value.

The chains behind the UniProt entries cited, without tags or fusion partners. Where a name states a change or a piece, a line headed by the entry shows the natural chain unless it says otherwise.
UniProt P16257, whole entry, looked up: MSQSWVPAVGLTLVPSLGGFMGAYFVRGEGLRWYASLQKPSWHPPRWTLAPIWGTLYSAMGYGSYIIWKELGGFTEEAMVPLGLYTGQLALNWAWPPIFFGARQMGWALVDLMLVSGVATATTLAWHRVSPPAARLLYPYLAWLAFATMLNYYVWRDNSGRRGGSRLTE
UniProt P18825, whole entry: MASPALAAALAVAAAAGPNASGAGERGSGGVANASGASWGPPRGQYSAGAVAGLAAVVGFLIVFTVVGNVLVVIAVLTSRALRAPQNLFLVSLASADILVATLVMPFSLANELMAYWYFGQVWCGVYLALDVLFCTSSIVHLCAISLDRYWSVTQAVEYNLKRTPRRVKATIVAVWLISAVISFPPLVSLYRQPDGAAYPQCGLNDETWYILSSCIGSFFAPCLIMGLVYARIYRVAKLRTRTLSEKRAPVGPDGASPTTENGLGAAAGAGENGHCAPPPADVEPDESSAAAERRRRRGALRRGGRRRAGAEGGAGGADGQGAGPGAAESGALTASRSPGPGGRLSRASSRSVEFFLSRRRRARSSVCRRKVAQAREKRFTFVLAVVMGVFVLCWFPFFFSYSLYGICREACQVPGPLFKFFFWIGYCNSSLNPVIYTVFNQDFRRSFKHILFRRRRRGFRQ
UniProt P35372, whole entry: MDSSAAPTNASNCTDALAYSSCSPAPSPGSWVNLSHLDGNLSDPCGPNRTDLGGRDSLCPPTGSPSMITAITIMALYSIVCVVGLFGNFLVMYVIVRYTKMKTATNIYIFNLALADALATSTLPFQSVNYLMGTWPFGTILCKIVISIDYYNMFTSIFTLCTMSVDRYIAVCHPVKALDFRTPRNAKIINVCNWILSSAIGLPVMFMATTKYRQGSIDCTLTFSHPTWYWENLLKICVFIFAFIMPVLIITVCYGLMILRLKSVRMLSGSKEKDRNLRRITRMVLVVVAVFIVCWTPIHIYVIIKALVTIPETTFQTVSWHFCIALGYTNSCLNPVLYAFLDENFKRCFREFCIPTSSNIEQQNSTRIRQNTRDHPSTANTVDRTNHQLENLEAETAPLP
UniProt P46098, whole entry: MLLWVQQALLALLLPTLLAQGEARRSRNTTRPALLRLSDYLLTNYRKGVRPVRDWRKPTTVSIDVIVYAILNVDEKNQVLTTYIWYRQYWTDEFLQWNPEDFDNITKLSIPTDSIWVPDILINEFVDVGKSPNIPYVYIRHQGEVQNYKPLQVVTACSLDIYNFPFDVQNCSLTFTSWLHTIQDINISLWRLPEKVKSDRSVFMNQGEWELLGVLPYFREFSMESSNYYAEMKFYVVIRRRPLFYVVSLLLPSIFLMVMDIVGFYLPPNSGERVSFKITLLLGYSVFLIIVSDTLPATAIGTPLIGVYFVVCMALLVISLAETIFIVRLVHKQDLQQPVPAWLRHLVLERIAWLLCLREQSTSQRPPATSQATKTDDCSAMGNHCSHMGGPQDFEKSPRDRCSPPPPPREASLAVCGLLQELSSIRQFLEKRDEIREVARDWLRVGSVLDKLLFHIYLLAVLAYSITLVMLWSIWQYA
UniProt P28566: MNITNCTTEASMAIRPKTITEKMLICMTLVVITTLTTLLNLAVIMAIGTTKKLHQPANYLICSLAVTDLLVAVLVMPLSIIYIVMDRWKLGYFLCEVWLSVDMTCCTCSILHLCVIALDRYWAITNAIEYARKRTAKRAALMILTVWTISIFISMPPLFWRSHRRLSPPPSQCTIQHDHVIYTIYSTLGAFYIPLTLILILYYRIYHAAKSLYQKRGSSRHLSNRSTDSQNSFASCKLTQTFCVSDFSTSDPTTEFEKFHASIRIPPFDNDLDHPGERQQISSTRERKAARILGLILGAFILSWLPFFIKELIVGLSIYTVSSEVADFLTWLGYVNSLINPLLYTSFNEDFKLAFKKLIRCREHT
UniProt P21728, whole entry: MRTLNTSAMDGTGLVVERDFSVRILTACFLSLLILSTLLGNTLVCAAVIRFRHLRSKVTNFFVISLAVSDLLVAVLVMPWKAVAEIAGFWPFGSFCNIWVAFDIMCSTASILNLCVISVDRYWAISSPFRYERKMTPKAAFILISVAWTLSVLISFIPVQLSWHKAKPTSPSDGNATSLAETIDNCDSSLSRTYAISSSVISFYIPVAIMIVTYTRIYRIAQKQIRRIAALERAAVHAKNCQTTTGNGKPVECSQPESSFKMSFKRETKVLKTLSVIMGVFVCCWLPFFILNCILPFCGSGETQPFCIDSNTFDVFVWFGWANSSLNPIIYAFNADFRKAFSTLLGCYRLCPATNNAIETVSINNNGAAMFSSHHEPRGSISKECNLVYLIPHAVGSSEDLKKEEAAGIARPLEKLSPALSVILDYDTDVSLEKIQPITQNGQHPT
UniProt P08173, whole entry: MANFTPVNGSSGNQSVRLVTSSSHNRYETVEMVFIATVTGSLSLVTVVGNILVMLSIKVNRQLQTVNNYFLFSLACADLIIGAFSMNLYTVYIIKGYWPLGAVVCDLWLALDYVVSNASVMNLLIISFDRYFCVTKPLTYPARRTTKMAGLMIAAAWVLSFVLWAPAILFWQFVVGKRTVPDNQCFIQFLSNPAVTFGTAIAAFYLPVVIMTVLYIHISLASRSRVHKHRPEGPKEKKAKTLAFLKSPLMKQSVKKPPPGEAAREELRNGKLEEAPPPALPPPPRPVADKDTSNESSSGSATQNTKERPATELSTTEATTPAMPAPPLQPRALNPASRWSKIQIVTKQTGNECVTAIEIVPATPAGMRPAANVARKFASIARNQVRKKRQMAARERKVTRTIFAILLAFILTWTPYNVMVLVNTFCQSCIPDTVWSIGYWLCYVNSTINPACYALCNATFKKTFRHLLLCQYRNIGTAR
UniProt P35462, whole entry: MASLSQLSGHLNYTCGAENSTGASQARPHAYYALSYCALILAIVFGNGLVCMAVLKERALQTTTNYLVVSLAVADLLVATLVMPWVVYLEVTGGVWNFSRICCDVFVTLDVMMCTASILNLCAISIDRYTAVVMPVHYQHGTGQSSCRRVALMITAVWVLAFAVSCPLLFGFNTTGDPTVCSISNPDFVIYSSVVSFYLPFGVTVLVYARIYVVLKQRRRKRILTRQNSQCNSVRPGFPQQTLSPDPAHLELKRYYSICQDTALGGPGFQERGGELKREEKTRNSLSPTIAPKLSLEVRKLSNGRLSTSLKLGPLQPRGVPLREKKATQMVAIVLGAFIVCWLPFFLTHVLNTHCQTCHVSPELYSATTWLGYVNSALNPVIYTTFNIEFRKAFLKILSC
UniProt P47898, whole entry: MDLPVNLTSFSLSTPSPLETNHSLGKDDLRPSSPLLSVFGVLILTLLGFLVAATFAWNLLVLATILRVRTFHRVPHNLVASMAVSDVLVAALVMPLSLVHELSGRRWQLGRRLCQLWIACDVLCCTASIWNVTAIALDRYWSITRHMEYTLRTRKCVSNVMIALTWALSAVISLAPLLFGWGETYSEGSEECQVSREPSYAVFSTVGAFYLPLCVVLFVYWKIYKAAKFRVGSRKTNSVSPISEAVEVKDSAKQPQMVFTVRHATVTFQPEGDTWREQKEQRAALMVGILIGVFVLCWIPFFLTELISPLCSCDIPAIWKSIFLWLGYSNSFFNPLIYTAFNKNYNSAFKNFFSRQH
UniProt P47901: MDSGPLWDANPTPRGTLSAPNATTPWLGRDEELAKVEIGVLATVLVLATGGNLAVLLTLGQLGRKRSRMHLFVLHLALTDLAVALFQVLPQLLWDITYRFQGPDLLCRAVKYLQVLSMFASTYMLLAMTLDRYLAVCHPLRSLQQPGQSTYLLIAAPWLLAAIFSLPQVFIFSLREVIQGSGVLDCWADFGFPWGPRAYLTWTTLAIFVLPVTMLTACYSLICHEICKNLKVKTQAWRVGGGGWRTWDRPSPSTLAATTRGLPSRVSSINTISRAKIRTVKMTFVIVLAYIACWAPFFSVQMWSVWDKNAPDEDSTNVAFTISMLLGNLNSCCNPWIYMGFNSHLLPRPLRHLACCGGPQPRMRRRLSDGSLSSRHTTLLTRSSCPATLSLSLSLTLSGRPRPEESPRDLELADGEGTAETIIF
UniProt P25021, whole entry: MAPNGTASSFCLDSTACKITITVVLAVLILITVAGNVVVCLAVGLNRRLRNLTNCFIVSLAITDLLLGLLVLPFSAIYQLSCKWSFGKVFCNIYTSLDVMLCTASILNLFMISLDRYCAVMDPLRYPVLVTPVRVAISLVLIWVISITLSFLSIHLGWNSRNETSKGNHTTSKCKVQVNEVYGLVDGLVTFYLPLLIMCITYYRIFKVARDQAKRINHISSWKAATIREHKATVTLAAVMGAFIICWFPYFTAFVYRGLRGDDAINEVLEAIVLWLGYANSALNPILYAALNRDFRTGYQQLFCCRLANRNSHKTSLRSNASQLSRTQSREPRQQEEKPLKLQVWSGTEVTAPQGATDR
UniProt P08172, whole entry: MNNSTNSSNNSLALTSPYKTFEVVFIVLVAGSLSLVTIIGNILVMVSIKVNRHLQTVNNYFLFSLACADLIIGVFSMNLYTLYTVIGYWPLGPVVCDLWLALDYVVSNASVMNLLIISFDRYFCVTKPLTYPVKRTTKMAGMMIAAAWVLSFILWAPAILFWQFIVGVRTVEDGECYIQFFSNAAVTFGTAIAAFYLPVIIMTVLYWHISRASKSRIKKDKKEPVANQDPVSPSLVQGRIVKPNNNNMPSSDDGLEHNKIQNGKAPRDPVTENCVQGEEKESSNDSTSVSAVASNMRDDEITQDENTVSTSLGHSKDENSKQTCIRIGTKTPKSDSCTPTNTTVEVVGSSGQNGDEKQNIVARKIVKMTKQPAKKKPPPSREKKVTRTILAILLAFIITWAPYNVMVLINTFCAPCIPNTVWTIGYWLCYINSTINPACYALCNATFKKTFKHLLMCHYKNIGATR
UniProt P28335: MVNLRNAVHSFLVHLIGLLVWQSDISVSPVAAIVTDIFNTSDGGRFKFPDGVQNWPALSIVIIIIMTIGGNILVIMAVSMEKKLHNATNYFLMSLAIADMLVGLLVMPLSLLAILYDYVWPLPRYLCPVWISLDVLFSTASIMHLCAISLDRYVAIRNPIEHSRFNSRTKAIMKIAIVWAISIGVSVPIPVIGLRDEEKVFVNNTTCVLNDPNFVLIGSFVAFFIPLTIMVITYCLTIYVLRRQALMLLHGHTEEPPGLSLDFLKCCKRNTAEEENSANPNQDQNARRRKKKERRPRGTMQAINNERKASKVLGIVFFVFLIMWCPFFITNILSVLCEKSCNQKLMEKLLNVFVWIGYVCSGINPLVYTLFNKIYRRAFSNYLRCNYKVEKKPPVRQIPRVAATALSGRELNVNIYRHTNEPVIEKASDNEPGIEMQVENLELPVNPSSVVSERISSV
UniProt P14416, whole entry: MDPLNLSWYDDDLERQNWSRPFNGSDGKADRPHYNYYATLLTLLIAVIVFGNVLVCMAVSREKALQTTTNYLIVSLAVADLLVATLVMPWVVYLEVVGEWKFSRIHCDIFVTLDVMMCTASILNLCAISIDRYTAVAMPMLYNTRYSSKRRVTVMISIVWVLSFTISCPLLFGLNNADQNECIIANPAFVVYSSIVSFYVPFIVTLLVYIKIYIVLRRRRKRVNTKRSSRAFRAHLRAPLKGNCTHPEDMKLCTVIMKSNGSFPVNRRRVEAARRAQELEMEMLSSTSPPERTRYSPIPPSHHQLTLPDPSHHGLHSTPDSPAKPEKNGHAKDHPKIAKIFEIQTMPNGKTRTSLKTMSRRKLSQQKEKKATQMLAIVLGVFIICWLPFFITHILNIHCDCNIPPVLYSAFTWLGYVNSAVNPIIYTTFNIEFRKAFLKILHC
UniProt Q99720, whole entry: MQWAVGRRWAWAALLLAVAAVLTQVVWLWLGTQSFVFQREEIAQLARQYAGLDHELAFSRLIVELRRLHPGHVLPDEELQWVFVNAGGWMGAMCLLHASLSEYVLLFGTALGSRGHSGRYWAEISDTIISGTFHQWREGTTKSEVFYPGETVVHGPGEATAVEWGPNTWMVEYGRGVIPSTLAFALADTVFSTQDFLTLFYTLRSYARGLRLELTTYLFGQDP
UniProt P13945: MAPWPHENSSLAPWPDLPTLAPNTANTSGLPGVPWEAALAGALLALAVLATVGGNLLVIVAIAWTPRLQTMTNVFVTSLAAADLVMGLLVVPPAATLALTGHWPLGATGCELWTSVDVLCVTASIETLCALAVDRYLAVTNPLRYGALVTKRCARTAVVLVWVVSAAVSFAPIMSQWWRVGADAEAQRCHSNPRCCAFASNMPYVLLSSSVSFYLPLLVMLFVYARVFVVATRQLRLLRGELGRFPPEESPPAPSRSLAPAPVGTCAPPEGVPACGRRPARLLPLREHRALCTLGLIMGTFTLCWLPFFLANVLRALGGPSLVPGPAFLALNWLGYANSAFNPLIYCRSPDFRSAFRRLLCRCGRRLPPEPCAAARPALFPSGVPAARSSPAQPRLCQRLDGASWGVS

How the values were obtained:
[1] = molecular target: Translocator protein (Rattus norvegicus, UniProt P16257)
[2] = molecular target: Cannabinoid receptor 1 (Homo sapiens, UniProt P21554)
[3] = molecular target: Cannabinoid receptor 2 (Homo sapiens, UniProt P34972)
[4] = molecular target: Alpha-2C adrenergic receptor (Homo sapiens) (UniProt P18825); details: 10 uM
[5] = molecular target: Histamine H3 receptor (Homo sapiens) (UniProt Q9Y5N1); details: 10 uM
[6] = molecular target: Vasopressin V2 receptor (Homo sapiens) (UniProt P30518); details: 10 uM
[7] = molecular target: Mu-type opioid receptor (Homo sapiens) (UniProt P35372); details: 10 uM
[8] = molecular target: Vasopressin V1a receptor (Homo sapiens) (UniProt P37288); details: 10 uM
[9] = molecular target: 5-hydroxytryptamine receptor 3A (Homo sapiens) (UniProt P46098); details: 10 uM
[10] = molecular target: 5-hydroxytryptamine receptor 1E (Homo sapiens) (UniProt P28566); details: 10 uM
[11] = molecular target: Beta-1 adrenergic receptor (Homo sapiens) (UniProt P08588); details: 10 uM
[12] = molecular target: D(1A) dopamine receptor (Homo sapiens) (UniProt P21728); details: 10 uM
[13] = molecular target: D(4) dopamine receptor (Homo sapiens) (UniProt P21917); details: 10 uM
[14] = molecular target: Alpha-2B adrenergic receptor (Homo sapiens) (UniProt P18089); details: 10 uM
[15] = molecular target: Muscarinic acetylcholine receptor M4 (Homo sapiens) (UniProt P08173); details: 10 uM
[16] = molecular target: 5-hydroxytryptamine receptor 7 (Homo sapiens) (UniProt P34969); details: 10 uM
[17] = molecular target: D(3) dopamine receptor (Homo sapiens) (UniProt P35462); details: 10 uM
[18] = molecular target: 5-hydroxytryptamine receptor 5A (Homo sapiens) (UniProt P47898); details: 10 uM
[19] = molecular target: Alpha-1A adrenergic receptor (Homo sapiens) (UniProt P35348); details: 10 uM
[20] = molecular target: Vasopressin V1b receptor (Homo sapiens) (UniProt P47901); details: 10 uM
[21] = molecular target: Muscarinic acetylcholine receptor M1 (Homo sapiens) (UniProt P11229); details: 10 uM
[22] = molecular target: Kappa-type opioid receptor (Homo sapiens, UniProt P41145)
[23] = molecular target: Muscarinic acetylcholine receptor M5 (Homo sapiens) (UniProt P08912); details: 10 uM
[24] = molecular target: Histamine H1 receptor (Homo sapiens) (UniProt P35367); details: 10 uM
[25] = molecular target: Sodium-dependent noradrenaline transporter (Homo sapiens) (UniProt P23975); details: 10 uM
[26] = molecular target: 5-hydroxytryptamine receptor 2B (Homo sapiens) (UniProt P41595); details: 10 uM
[27] = molecular target: Delta-type opioid receptor (Homo sapiens) (UniProt P41143); details: 10 uM
[28] = molecular target: Histamine H2 receptor (Homo sapiens) (UniProt P25021); details: 10 uM
[29] = molecular target: Muscarinic acetylcholine receptor M3 (Homo sapiens) (UniProt P20309); details: 10 uM
[30] = molecular target: Sodium-dependent serotonin transporter (Homo sapiens) (UniProt P31645); details: 10 uM
[31] = molecular target: Alpha-1B adrenergic receptor (Homo sapiens) (UniProt P35368); details: 10 uM
[32] = molecular target: Muscarinic acetylcholine receptor M2 (Homo sapiens) (UniProt P08172); details: 10 uM
[33] = molecular target: Sodium-dependent dopamine transporter (Homo sapiens) (UniProt Q01959); details: 10 uM
[34] = molecular target: 5-hydroxytryptamine receptor 2C (Homo sapiens) (UniProt P28335); details: 10 uM
[35] = molecular target: D(2) dopamine receptor (Homo sapiens) (UniProt P14416); details: 10 uM
[36] = molecular target: Sigma non-opioid intracellular receptor 1 (Homo sapiens) (UniProt Q99720); details: 10 uM
[37] = molecular target: Alpha-2A adrenergic receptor (Homo sapiens) (UniProt P08913); details: 10 uM
[38] = molecular target: 5-hydroxytryptamine receptor 6 (Homo sapiens) (UniProt P50406); details: 10 uM
[39] = molecular target: Beta-3 adrenergic receptor (Homo sapiens) (UniProt P13945); details: 10 uM

Cc1c(C(=O)NC2(C#N)CCOCC2)nn(-c2ccccc2Br)c1-c1ccccc1
pKi [1]: 6.24

Cc1c(C(=O)NC2(C#N)CCCCC2)nn(-c2ccccc2Br)c1-c1ccccc1
pKi [1]: 7.12

Cc1c(C(=O)NC2(C#N)CCOCC2)nn(-c2ccccc2-c2ccccc2)c1-c1ccccc1
pKi [1]: 5.55 | pKi [2]: 6.30

Cc1c(C(=O)NC2(C#N)CCOCC2)nn(-c2ccccc2F)c1-c1ccccc1
pKi [1]: 6.40 | pKi [3]: 5.66

COc1ccc(-c2c(Br)c(C(=O)NC3(C#N)CCOCC3)nn2-c2cccc(Br)c2)cc1
pKi [1]: 6.81 | pKi [2]: 6.45 | pKi [3]: 6.76

Cc1c(C(=O)NC2(C#N)CCOCC2)nn(-c2ccccc2Br)c1-c1ccc(F)cc1
pKi [1]: 6.31 | pKi [2]: 7.26

COc1ccc(-c2c(C)c(C(=O)NC3(C#N)CCOCC3)nn2-c2ccccc2Br)cc1
inhibition [4]: < 50% | inhibition [5]: < 50% | inhibition [6]: < 50% | inhibition [7]: < 50% | inhibition [8]: < 50% | inhibition [9]: < 50% | inhibition [10]: < 50% | inhibition [11]: < 50% | inhibition [12]: < 50% | inhibition [13]: < 50% | inhibition [14]: < 50% | inhibition [15]: < 50% | inhibition [16]: < 50% | inhibition [17]: < 50% | inhibition [18]: < 50% | inhibition [19]: < 50% | pKi [1]: 7.54 | inhibition [20]: < 50% | inhibition [21]: < 50% | pKi [22]: 6.10 | inhibition [23]: < 50% | pKi [2]: 7.21 | inhibition [24]: < 50% | inhibition [25]: < 50% | inhibition [26]: < 50% | inhibition [27]: < 50% | inhibition [28]: < 50% | inhibition [29]: < 50% | inhibition [30]: < 50% | inhibition [31]: < 50% | inhibition [32]: < 50% | inhibition [33]: < 50% | inhibition [34]: < 50% | inhibition [35]: < 50% | inhibition [36]: < 50% | inhibition [37]: < 50% | inhibition [38]: < 50% | inhibition [39]: < 50% | pKi [3]: 5.72

Cc1c(C(=O)NC2(C#N)CCOCC2)nn(-c2ccccc2I)c1-c1ccccc1
pKi [1]: 6.12

Cc1c(C(=O)NC2(C#N)CCOCC2)nn(-c2cccc(Br)c2)c1-c1ccccc1
pKi [1]: 6.94 | pKi [3]: 6.65

Cc1c(C(=O)NC2(C#N)CCOCC2)nn(-c2ccccc2Br)c1-c1cccc(F)c1
pKi [1]: 6.16

Cc1c(C(=O)NC2(C#N)CCOCC2)nn(-c2ccc(Br)cc2)c1-c1ccccc1
pKi [1]: 6.38

COc1ccc(-c2c(C)c(C(=O)NC3(C#N)CCOCC3)nn2-c2cccc(Br)c2)cc1
pKi [1]: 7.21

COc1ccc(-c2c(C)c(C(=O)NC3(C#N)CCOCC3)nn2-c2ccccc2F)cc1
pKi [1]: 6.88
